How the values were obtained:
AREc32 cells = details: human
[1] = test system: mitochondrial membrane potential (MMP) in AREc32 cells; details: human

N#Cc1cc(Br)c(O)c(Br)c1 [Bromoxynil]
Cytotoxicity ImageExpress IC10 (AREc32 cells): 187 µM
Cytotoxicity ImageExpress log(IC10 (M)) (AREc32 cells): -3.73 M
SRcytotoxicity [1]: 8.5
